Measured affinities in a library of Ab-91 heavy chain variants

Antigen: PDVDLGDISGINAS, a 14-residue peptide of the SARS-CoV-2 spike HR2 region.

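The starting antibody came from a phage panning campaign against this peptide. AAYL51 was designed without a model: most single CDR substitutions and a random sample of double and triple ones. Affinity was read by AlphaSeq, a pooled yeast mating assay with surface-displayed partners. Binding brings cells together so that they mate, and sequencing counts the barcode pairs among the diploids. The ratio of observed to expected reads was calibrated, replicate by replicate, on BCL2-family standards whose Kd was known from biolayer interferometry. The assay was run in three technical replicates.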

Each scFv is VL, a 15-residue (Gly4Ser)3 linker, VH, as in the parent Ab-91, and differs from it in the CDRs of the heavy chain only.
VL: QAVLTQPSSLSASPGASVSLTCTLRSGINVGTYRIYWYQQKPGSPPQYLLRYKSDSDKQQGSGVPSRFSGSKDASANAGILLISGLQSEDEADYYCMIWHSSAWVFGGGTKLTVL
VH: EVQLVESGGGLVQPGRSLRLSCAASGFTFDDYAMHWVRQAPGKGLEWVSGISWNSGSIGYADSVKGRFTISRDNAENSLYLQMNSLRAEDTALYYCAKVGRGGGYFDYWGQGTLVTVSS

Changes read parent residue, position, new residue, counted from the first residue of the VH shown. Values are log10 of the apparent Kd in nM; lower means stronger binding. A pair that was not seen in that replicate is written "nd"; this usually means weak binding, but a binder can also be missed.

| changes | log10 Kd (nM) by replicate | signal with controls |
|---|---|---|
| V64S+G102N+Y105F | 2.03 2.60 1.94 | 3 of 9 (3.72) |
| V64N+F106G+D107H | 4.65 5.99 nd | 3 of 9 (4.32) |
| D31K+M34N+S57W | 4.86 6.14 nd | 4 of 9 (4.48) |
| T28E+A33D+Y105D | 4.38 nd nd | 2 of 9 (3.33) |
| D31E+V64K+F106T | nd nd nd | 0 of 9 |
| I51C+I58V+Y60H | nd nd nd | 1 of 9 (4.04) |
| H35K+S55L+D107Q | nd 3.91 4.16 | 4 of 9 (4.88) |
| S52N+N54C+Y60C | nd nd nd | 0 of 9 |
| N54Q+A61K+Y105T | 3.72 nd nd | 0 of 9 |
| H35Y+A61Q+Y105D | nd nd 3.95 | 0 of 9 |
| F29C+R101H+G103D | nd nd nd | 2 of 9 (3.89) |
| D30P+K65S+G100S | nd nd nd | 0 of 9 |
| T28K+F29P+I51A | 6.11 4.87 3.25 | 5 of 9 (4.80) |
| G100I+Y105E | 5.22 4.56 5.76 | 5 of 9 (5.08) |
| D31S+G50Q+G56H | nd nd nd | 1 of 9 (3.18) |
| D31P+W53C+S63H | 4.22 nd nd | 2 of 9 (4.31) |
| T28N+S55R+S63G | 3.29 3.95 2.71 | 2 of 9 (4.43) |
| G26I+D31A+Y32M | nd nd nd | 1 of 9 (4.02) |
| Y32M+S57Q+S63R | 3.94 nd nd | 1 of 9 (3.75) |
| V64L+G100Y+Y108Q | nd nd nd | 0 of 9 |
| A33S+M34S+S55V | nd nd 3.99 | 0 of 9 |
| D30G+H35N+G50N | nd nd nd | 0 of 9 |
| S57A+D62W+K65N | 3.64 3.43 4.11 | 4 of 9 (4.16) |
| V64R+V99P+R101S | nd nd nd | 0 of 9 |
| F29C+D62M | nd nd nd | 0 of 9 |
| S57M+V64S+G104K | 4.42 nd nd | 2 of 9 (3.56) |
| M34R+G50Y+S55R | 4.65 nd nd | 2 of 9 (4.43) |
| G56Y+G104H | nd nd nd | 3 of 9 (4.38) |
| G56E+Y60S+A61E | 3.97 4.83 5.18 | 5 of 9 (4.77) |
| Y32L+G50I+Y108D | 3.35 nd nd | 0 of 9 |
| I51T+W53R+S63I | nd 6.32 4.30 | 2 of 9 (4.51) |
| Y32V+G104M | 6.65 5.43 5.79 | 4 of 9 (4.84) |
| D30Y+N54M+F106A | 4.49 nd 5.35 | 3 of 9 (4.37) |
| A61L+Y105G+D107P | nd nd nd | 2 of 9 (5.39) |
| I51P+Y60D+G102I | nd nd nd | 3 of 9 (3.38) |
| D30W+A33Y+Y105L | nd nd nd | 1 of 9 (5.29) |
| D30F+R101G+Y108D | 3.25 nd nd | 2 of 9 (3.66) |
| W53K+S55L+G104M | nd nd nd | 0 of 9 |
| G59W+V99M+Y108C | nd nd 4.73 | 2 of 9 (4.47) |
| V99R+G100M+Y105V | nd nd nd | 1 of 9 (4.74) |
| G26A+D31Y+D107Q | nd nd nd | 2 of 9 (4.25) |
| W53P+G56K | 2.12 1.95 1.62 | 6 of 9 (5.01) |
| A33L+H35K+I58R | nd nd 4.16 | 1 of 9 (4.35) |
| H35E+R101F | 4.78 nd nd | 5 of 9 (5.09) |

Empty control strains, which show no peptide, gave a signal in 21% of pairings with library AAYL51; the median was 4.54 and 95% of these signals were weaker than 3.26. No background was subtracted. The control count says in how many pairings with the empty strains this scFv gave a signal, with their mean in brackets.

Source: Engelhart et al. 2022 (doi:10.1038/s41597-022-01779-4), MIT Lincoln Laboratory and A-Alpha Bio; data file from the FLAb repository.